Measured values reported in patent publication US20230175015A1, “IMMUNOSUPPRESSIVE AGENTS AND VIRAL DELIVERY RE-DOSING METHODS FOR GENE THERAPY” (MYOGENE BIO LLC, priority 2020, published 2023).

Tested on: hDMD de145 mdx mice
Test: AAV9 redosing with immunosuppressive regimens, GFP/mCherry expression (Example 2)
Format: in vivo
Conditions: triceps
Description: Experimental overview. Different immunosuppressive drug regimens were assessed for their ability to support multiple injections of AAV9 to be efficacious. The experimental paradigm is outlined in FIG. 1. Mice were given an immunosuppression protocol (IS) commencing at Day-7 (1st dose—AAV injection) and re-dosed (2nd dose—AAV9 injection) approximately 4 weeks after the first dose. The 1st dose consisted of AAV9-CMV-GFP at a concentration of 1.16×10^14 vector genomes (vgs)/kg (˜3×10^12 vgs/mouse). In some cases, the 1st dose also included AAV9-Ck8-Cas9. The 2nd dose consisted of AAV9-target (containing mCherry and 45-55 gRNAs21) at a concentration of 1.16×10^14 vgs/kg and AAV9-Ck8-Cas9 at a concentration of 1.16×10^14 vgs/kg each vector (FIGS. 2A and 2B). Immunomodulation protocols were tested to determine the efficacy of repeat dosing by GFP and mCherry expression.
Immunosuppressive drugs. […]
Redosing was assessed by looking for mCherry expression, which was only present in the second injection. […]

## CTLA4Ig: hCTLA4Ig (Abatacept)
Imaging of heart, tibialis anterior sections
  mCherry expression (redosing) when the named drug is left out of the four-drug regimen: mCherry expression is observed
Lysates of heart, liver
  mCherry expression (redosing) by Western blotting when the named drug is removed from the four-drug regimen: Redosing of mCherry expression was shown
